Assay in all cases: cell-based
The target in test [1] is T1, hCB1 (Homo sapiens, UniProt P21554). Set-up: host or cells: CHO-K1. As for the experimental part:
HitHunter cAMP assay: Inhibition of forskolin-stimulated cAMP was determined using the DiscoveRx HitHunter assay in hCB1R CHO-K1 cells. Cells (20,000 cells/well in low-volume 96 well plates) were incubated overnight in Opti-MEM (Invitrogen) containing 1% FBS at 37° C. and 5% CO2. Following this, Opti-MEM media was removed and replaced with cell assay buffer (DiscoveRx) and cells were co-treated at 37° C. with 10 μM forskolin and hCB1R ligands (0.10 nM-10 μM) for 30 min or 90 min cAMP antibody solution and cAMP working detection solutions were then added to cells according to the manufacturer's directions (DiscoveRx®) and cells were incubated for 60 min at room temperature. cAMP solution A was added according to the manufacturer's directions (DiscoveRx®) and cells were incubated for an additional 60 min at room temperature before chemiluminescence was measured on a Cytation 5 plate reader (top read, gain 200, integration time 10,000 ms).

The chains behind the UniProt entries cited, without tags or fusion partners.
UniProt P21554, whole entry: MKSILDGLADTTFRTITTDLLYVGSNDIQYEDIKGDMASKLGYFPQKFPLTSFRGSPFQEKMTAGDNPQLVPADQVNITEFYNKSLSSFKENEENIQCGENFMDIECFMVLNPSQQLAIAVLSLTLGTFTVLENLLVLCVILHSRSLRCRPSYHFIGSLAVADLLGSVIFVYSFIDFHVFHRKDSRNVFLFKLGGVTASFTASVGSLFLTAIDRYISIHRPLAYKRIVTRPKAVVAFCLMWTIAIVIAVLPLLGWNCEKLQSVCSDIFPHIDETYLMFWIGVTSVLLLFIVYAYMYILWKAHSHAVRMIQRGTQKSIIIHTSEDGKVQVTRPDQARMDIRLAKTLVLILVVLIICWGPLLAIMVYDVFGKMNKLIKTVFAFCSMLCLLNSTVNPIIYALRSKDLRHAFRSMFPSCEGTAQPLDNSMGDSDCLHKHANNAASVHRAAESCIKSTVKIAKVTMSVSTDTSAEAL
UniProt P34972, whole entry, species assumed: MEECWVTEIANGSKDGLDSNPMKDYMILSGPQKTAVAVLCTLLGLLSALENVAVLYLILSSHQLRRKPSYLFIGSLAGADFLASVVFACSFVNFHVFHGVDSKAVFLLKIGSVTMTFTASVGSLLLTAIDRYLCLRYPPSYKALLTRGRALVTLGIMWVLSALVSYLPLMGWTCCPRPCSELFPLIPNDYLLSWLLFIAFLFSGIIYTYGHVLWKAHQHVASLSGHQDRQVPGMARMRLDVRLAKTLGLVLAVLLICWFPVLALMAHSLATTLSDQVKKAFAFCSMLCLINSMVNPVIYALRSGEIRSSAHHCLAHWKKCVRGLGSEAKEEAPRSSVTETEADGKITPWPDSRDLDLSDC

In test [2] the target is T2, CB2 (Homo sapiens, UniProt P34972).
For test [3], the target named is T2, CB2. The source holds these as a separate data set.
The target in test [4] is T1, hCB1. Also noted: host or cells: CHO-K1 PathHunter. The method, then:
PathHunter CB1 β-Arrestin Assay: Chinese hamster ovary K1 (CHO-K1)-PathHunter hCB1 β-arrestin cells (DiscoveRx, Fremont, CA) were seeded at 5000 cells/well in 384-well plates 24 h before use and incubated at 37° C., 5% CO2. Compounds were dissolved in dimethyl sulfoxide (DMSO) and diluted in optimized cell culture (OCC) media. Agonist EC80 was determined directly from an agonist dose—response curve (data not shown). […] Five microliters of allosteric modulator or vehicle solution was added to each well at the appropriate concentrations and incubated for 30 min. Five microliters of agonist was then added to each well followed by a 90 min incubation. Fifteen microliters of detection reagent was then added followed by further 60 min incubation at room temperature. Chemiluminescence was measured on a standard luminescence plate reader as relative light units (RLU). Basal RLU was defined as zero. […] Data were analyzed using the fourparameter variable-slope and allosteric EC50 shift nonlinear regression equations in Prism 5.0 (GraphPad, San Diego, CA).

Where two headings read alike, the source gives them in different places. Bounds are passed on as bounds.

As to `O=C(O)CCC(c1ccccc1)c1cn(-c2ccccc2)c2ccccc12` (stereo not drawn) [GAT1102, 4-Phenyl-4-(1-phenyl-1H-indol-3-yl)butanoic acid], the concentration for a half-maximal effect (EC50) at hCB1 [1] (CB1 Agonist mode cAMP EC50, CB1, agonist mode) was 356 nM; on hCB1 [1] (CB1 PAM mode cAMP EC50, CB1, PAM mode) it was 419 nM; at CB2 [2], greater than 10000 nM; at CB2 [3], 271 nM; at hCB1 [4], greater than 10000 nM; on hCB1 [4] (read-out: CB1 Agonist mode β-Arrestin EC50, CB1, agonist mode), greater than 10000 nM. Also, the maximum response (Emax) came to 89% at hCB1 [1] (read-out: CB1 Agonist mode cAMP Emax, CB1, agonist mode); 101% at hCB1 [1] (read-out: CB1 PAM mode cAMP Emax, CB1, PAM mode); 0% at CB2 [2] (CB2, agonist mode, read-out: CB2 Agonist mode β-Arrestin Emax); 81% on CB2 [3] (CB2, agonist mode, read-out: CB2 Agonist mode cAMP Emax); 0% at hCB1 [4] (read-out: CB1 Agonist mode β-Arrestin Emax); 0% at hCB1 [4] (read-out: CB1 PAM mode β-Arrestin Emax).

As usually defined, the EC50 is the concentration that produces a half-maximal response. What is called Emax is the size of the effect at its maximum, as opposed to the concentration needed.
